From US9587005B2 (priority 2010, dated 2017) come the findings set out here.

Protein sequences, listed by entry. Tags and fused reporters are not part of them. Residues count along the entry.
UniProt P47871, 26-477: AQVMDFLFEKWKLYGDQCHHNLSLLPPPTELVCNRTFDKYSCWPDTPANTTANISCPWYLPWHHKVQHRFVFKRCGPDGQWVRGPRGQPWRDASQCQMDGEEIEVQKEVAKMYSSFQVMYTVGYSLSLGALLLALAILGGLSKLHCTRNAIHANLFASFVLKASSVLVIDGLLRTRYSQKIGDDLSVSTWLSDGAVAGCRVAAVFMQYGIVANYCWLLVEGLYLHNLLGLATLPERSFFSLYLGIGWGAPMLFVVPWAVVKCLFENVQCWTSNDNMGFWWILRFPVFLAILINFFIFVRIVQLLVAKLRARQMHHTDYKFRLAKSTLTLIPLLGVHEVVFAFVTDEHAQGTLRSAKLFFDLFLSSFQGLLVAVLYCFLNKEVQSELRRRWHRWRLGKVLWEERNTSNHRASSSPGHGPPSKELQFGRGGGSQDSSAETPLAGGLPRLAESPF
UniProt P43220, 24-463: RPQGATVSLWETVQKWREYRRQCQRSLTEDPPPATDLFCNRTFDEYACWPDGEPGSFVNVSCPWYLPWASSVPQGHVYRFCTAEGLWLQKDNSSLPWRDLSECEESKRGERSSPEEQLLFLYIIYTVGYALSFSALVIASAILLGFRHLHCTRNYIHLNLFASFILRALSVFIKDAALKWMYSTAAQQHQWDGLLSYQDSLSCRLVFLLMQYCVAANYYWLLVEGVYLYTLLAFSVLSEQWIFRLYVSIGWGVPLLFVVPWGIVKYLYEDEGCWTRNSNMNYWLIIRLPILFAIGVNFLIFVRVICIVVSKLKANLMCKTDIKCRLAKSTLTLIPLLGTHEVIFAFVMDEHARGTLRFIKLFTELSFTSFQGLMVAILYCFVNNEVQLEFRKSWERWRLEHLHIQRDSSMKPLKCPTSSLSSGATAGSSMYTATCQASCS

Common to all, as to type: cell-based
One assay has as its target T1, glucagon receptor (Homo sapiens, UniProt P47871).
T1 construct: expressed in transfected cells; host or cells: HEK293
Nature of the assay: cAMP induction, firefly luciferase reporter assay in HEK293 cells co-transfected with glucagon receptor. An excerpt: (§1) This example describes an exemplary method of testing the biological activity of the peptides of the present disclosures, which method involves assaying cAMP synthesis.

For a further assay, the target named is T2, GLP-1 receptor (Homo sapiens, UniProt P43220).
T2 construct: expressed in transfected cells; host or cells: HEK293
The assay can be described thus: cAMP induction, firefly luciferase reporter assay in HEK293 cells co-transfected with GLP-1 receptor.
From the text: as §1

In another assay the target is T3, GIP receptor (Homo sapiens, UniProt P48546).
T3 sequence (P48546 22-466): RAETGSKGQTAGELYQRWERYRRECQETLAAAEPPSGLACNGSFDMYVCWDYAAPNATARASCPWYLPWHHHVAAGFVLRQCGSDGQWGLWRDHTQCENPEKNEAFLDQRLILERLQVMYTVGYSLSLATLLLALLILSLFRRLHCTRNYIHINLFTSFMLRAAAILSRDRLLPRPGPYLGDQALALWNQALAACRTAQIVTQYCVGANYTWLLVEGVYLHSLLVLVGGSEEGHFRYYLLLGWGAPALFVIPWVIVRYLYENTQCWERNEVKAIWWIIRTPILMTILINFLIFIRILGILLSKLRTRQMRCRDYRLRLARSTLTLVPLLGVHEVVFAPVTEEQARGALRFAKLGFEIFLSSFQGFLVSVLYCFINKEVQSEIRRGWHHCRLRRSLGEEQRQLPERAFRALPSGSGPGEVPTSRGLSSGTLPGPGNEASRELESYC
The assay can be described thus: cAMP induction, firefly luciferase reporter assay in HEK293 cells co-transfected with GIP receptor. On the technique in general: A reporter such as luciferase makes a cellular process visible.

In the case of `CCCCCCCCCCCCCCCC(=O)N[C@@H](CCC(=O)Nc1ccc(C[C@H](NC(=O)[C@H](CC(=O)O)NC(=O)[C@H](CO)NC(=O)[C@@H](NC(=O)[C@H](Cc2ccccc2)NC(=O)[C@@H](NC(=O)CNC(=O)[C@H](CCC(N)=O)NC(=O)C(C)(C)NC(=O)[C@@H](N)Cc2c[nH]cn2)[C@@H](C)O)[C@@H](C)O)C(=O)N[C@@H](CO)C(=O)N[C@@H](CCCCN)C(=O)N[C@@H](Cc2ccc(O)cc2)C(=O)N[C@@H](CC(C)C)C(=O)N[C@@H](CC(=O)O)C(=O)N[C@@H](CCC(=O)O)C(=O)N[C@@H](CCCNC(=N)N)C(=O)N[C@@H](C)C(=O)N[C@@H](C)C(=O)N[C@@H](CCC(N)=O)C(=O)N[C@@H](CC(=O)O)C(=O)N[C@@H](Cc2ccccc2)C(=O)N[C@H](C(=O)N[C@@H](CCC(N)=O)C(=O)N[C@@H](Cc2c[nH]c3ccccc23)C(=O)N[C@@H](CC(C)C)C(=O)N[C@@H](CC(C)C)C(=O)N[C@@H](CC(=O)O)C(=O)NCC(=O)NCC(=O)N2CCC[C@H]2C(=O)N[C@@H](CO)C(=O)N[C@@H](CO)C(=O)NCC(=O)N[C@@H](C)C(=O)N2CCC[C@H]2C(=O)N2CCC[C@H]2C(=O)N2CCC[C@H]2C(=O)N[C@@H](CO)C(N)=O)C(C)C)cc1)C(=O)O` [SEQ ID NO: 148], the EC50 at glucagon receptor was 8 pM; at GLP-1 receptor (GLP-1 Receptor EC50, Table 10, Example 16), 9 pM; on GIP receptor (GIP-1 Receptor EC50, Table 10, Example 16) it was 9 pM.
For the compound `CCCCCCCCCCCCCCC(SC[C@H](NC(=O)[C@H](CO)NC(=O)[C@@H]1CCCN1C(=O)[C@@H]1CCCN1C(=O)[C@@H]1CCCN1C(=O)[C@H](C)NC(=O)CNC(=O)[C@H](CO)NC(=O)[C@H](CO)NC(=O)[C@@H]1CCCN1C(=O)CNC(=O)CNC(=O)[C@H](CC(=O)O)NC(=O)[C@H](CC(C)C)NC(=O)[C@H](CC(C)C)NC(=O)[C@H](Cc1c[nH]c2ccccc12)NC(=O)[C@H](CCC(N)=O)NC(=O)[C@@H](NC(=O)[C@H](Cc1ccccc1)NC(=O)[C@H](CC(=O)O)NC(=O)[C@H](CCC(N)=O)NC(=O)[C@H](C)NC(=O)[C@H](C)NC(=O)[C@H](CCCNC(=N)N)NC(=O)[C@H](CCC(=O)O)NC(=O)[C@H](CC(=O)O)NC(=O)[C@H](CC(C)C)NC(=O)[C@H](Cc1ccc(O)cc1)NC(=O)[C@H](CCCCN)NC(=O)[C@H](CO)NC(=O)[C@H](Cc1ccc(O)cc1)NC(=O)[C@H](CC(=O)O)NC(=O)[C@H](CO)NC(=O)[C@@H](NC(=O)[C@H](Cc1ccccc1)NC(=O)[C@@H](NC(=O)CNC(=O)[C@H](CCC(N)=O)NC(=O)C(C)(C)NC(=O)[C@@H](N)Cc1c[nH]cn1)[C@@H](C)O)[C@@H](C)O)C(C)C)C(N)=O)C(=O)O` (stereo partly drawn) [SEQ ID NO: 164], the EC50 was 6 pM at glucagon receptor; 3 pM on GLP-1 receptor (GLP-1 Receptor (EC50), Table 13, Example 20); 28 pM on GIP receptor (GIP Receptor (EC50), Table 13, Example 20).

A word on the EC50: it is the midpoint of the concentration-response curve. High values mean a less potent agent, low ones a more potent agent.
